Assay results as given in patent US9453023B2, “Substituted phenyl cycloalkyl pyrrolidine (piperidine) spirolactams and amides, preparation and therapeutic use thereof” (SANOFI, priority 2010, dated 2016).

Chains of the proteins cited; added tags and fusions are not shown. Residues count along the entry.
UniProt Q865E1, 1-445: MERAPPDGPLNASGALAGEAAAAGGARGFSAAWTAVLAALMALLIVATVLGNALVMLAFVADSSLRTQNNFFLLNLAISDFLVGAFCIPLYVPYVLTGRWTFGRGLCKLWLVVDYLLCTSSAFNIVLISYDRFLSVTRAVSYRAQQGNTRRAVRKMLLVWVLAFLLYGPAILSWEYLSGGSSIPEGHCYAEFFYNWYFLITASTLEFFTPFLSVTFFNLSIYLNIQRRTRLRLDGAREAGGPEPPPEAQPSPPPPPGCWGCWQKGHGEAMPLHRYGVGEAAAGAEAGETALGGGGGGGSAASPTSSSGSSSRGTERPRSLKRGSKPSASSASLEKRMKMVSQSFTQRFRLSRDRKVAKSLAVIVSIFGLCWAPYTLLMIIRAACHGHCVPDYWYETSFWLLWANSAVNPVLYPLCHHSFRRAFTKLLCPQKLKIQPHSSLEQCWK

The molecules below were run against rhesus (Macacca Mulatta) H3 receptor (Macaca mulatta, UniProt Q865E1) (assay: Rhesus H3 radioligand binding assay ([3H]-Methylhistamine, WGA SPA)). Conditions: displacement of [3H]-Methylhistamine (2 nM) from rhesus H3 receptor membranes; Cheng-Prusoff.
Design: species or system rhesus monkey (Macacca Mulatta)
Method: (Genbank #AY231164). Stably transfected cultures were amplified in tissue culture flasks by standard tissue culture methods and induced to express rhesus H3 by exposure to 500 ng/ml tetracycline (Cellgro) for 24 hours. After induction, cells were dissociated from flasks utilizing Cell Stripper (Cellgro). Cells were centrifuged (1K×g, 5 min) and pellet frozen in an ethanol-dry ice bath to disrupt cell membranes. Frozen cell pellet was re-suspended in 5 mM HEPES (pH 7.4, Invitrogen) at 10 ml/1000 cm2 of harvested cells. The cell suspension was drawn through an 18 gauge needle (2-3×) followed by a 23 gauge needle (2-3×) to further disrupt cell membranes. The cell suspension was centrifuged (40K×g, 30 min). Cell membrane pellet was re-suspended in 5 mM HEPES (pH 7.4, Invitrogen) at a final protein concentration of 10 mg/ml. Rhesus H3 membranes were stored under liquid nitrogen prior to use in [3H]-Methylhistamine and GTPγS radioligand binding assays.
Rhesus H3 radioligand binding assay was performed using rhesus H3 receptor membranes (prepared as described above), [3H]-Methylhistamine (Perkin Elmer) and WGA SPA beads (wheat germ agglutinin scintillation proximity assay) beads (Amersham). The assay was performed in 96-well Opti-Plates (Packard). Each reaction contained 50 μl rhesus H3 membranes (20-30 μg total protein), 50 μl WGA SPA beads (0.1 μg) and 50 μl of 83 Ci/mmol [^3H]-Methylhistamine (final concentration 2 nM) and 50 μl of tested compound. The compounds of this invention and/or vehicle were diluted with binding buffer from 10 mM DMSO stocks. Assay plates were sealed with TopSeal (Perkin Elmer) and mixed on shaker (25° C., 1 hour). Assay plates were read on TopCount scintillation counter (Packard). Results were analyzed by Hill transformation and Ki values were determined by Cheng-Prusoff equation.

Row | Ki | Structure (SMILES)
1 | 44.1 nM | COC(=O)C1CCC2(CC1)CCN(c1ccc([C@H]3CCC(N4CCCC4C)C3)cc1)C2=O (stereo partly drawn) [Example 5, 2-{4-[3-(2-Methyl-pyrrolidin-1-yl)-cyclopentyl]-phenyl}-1-oxo-2-aza-spiro[4.5]decane-8-carboxylic acid methyl ester]
2 | 6.61 nM | C[C@@H]1CCCN1[C@H]1CC[C@H](c2ccc(N3CCC4(CCN(C(=O)OC(C)(C)C)CC4)C3=O)c(F)c2)CC1 [Example 14, 2-{2-Fluoro-4-[4-((R)-2-methyl-pyrrolidin-1-yl)-cyclohexyl]-phenyl}-1-oxo-2,8-diaza-spiro[4.5]decane-8-carboxylic acid tert-butyl ester]
3 | 75.3 nM | C[C@H]1CCCN1C1CC[C@H](c2ccc(NC(=O)c3ccccc3)cc2)C1 (stereo partly drawn) [Example 29, N-{4-[(S)-3-((S)-2-Methyl-pyrrolidin-1-yl)-cyclopentyl]-phenyl}-benzamide]
